High-throughput results from PubChem.
This is a sample that favours compounds with a hit; in the whole collection about 16% have one here.
uPA surface inh: blocks generation of uPA at the cell surface. 330,000 tested, 0.31% active. cell surface uPA generation assay, qHTS. Potency, µM (top dose mostly 38.3 µM), hits mostly inhibitors. AID 540303; active = well fitted inhibition curve with a large enough effect; inconclusive = small, poorly fitted or top-dose-only effect; inactive = no such curve, though single readings can be large or run the other way; tested in mouse RAW 264.7 cells; also: nearly all actives have a fitted effect of over 55% in size
miR-21 reporter: miR-21 reporter, rising signal | HeLa miR-21 FLuc reporter, luciferase, 48 h | Potency, µM (top dose mostly 38.3 µM) | 340,000 tested, under 10 active | AID 2288; active = well fitted rising curve with a large enough effect; inconclusive = small, poorly fitted or top-dose-only effect; inactive = no such curve, though single readings can be large or run the other way;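 further: miR-21 action dims this reporter so a rising signal means less miR-21 action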
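Luminescence from a firefly luciferase reporter carrying a miR-21 binding site downstream, stably expressed under a CMV promoter in HeLa cells that make miR-21 endogenously, reports miRNA modulation after 48 h compound exposure up to approximately 40uM final.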
TDP1 block: inhibitors of human tyrosyl-DNA phosphodiesterase TDP1; AID 485290; recombinant TDP1, AlphaScreen DNA substrate cleavage; 350,000 tested, 0.28% active; Potency, µM (titrated, usually from 130 µM), most hits filed as inhibitors; also: nearly all actives have a fitted effect of over 40% in size
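Recombinant human Tdp1 (E. coli-expressed, 1 nM final) preincubated with compounds 15 min at room temperature, then 5'-biotin/3'-phosphotyrosine-FITC DNA substrate (15 nM final) added for 5 min. AlphaScreen beads (10 ug/ml final) added 10 min; cleavage lowers signal.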
TDP1 cell CPT: DT40-hTDP1 cell growth loss with CPT; Potency, µM (titrated, usually from 46.2 µM), actives largely listed as inhibitors; AID 686979; chicken DT40 Tdp1-/-;hTDP1 cells + 20 nM CPT, ATP luminescence, 48 h; 420,000 tested, 12% active; also: nearly all actives have a fitted effect of over 55% in size
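Chicken DT40 Tdp1-/- cells complemented with human TDP1, 400 cells/well, exposed to compounds plus 20 nM camptothecin for at least 48 h at 37 C; viability read as ATP content by CellTiter-Glo luminescence.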
TDP1 cell noCPT: qHTS for Inhibitors of human tyrosyl-DNA phosphodiesterase 1 (TDP1): qHTS in cells in absence of CPT; Potency, µM (series often up to 46.2 µM), most hits filed as inhibitors; 420,000 tested, 15% active; DT40 Tdp1-/- hTDP1 cells, no CPT, ATP luminescence, 48 h; also: nearly all actives have a fitted effect of over 55% in size
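Growth kinetics read by CellTiter-Glo luminescence after ≥48 hr at 37 °C. Cells: DT40 Tdp1-/- stably carrying human TDP1, 400 per well, compound exposure in the absence of CPT (DMSO vehicle).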
Numbers stand for hits; n = inactive; u = inconclusive; x = not tested or not shown; [ ] = dose if it differs, or a comment. Unless noted, calls follow the shape of the dose curve; as a rule, active = well fitted curve in the direction sought with a large enough effect; inconclusive = small, poorly fitted or top-dose-only effect, or another doubt; inactive = no such curve, though single readings can be large; an effect the other way counts as inactive or inconclusive.

SMILES | uPA surface inh | miR-21 reporter | TDP1 block | TDP1 cell CPT | TDP1 cell noCPT
C=CCn1c(SCC(=O)Nc2ccc3c(c2)OCCO3)nc2cc(C(=O)O)ccc2c1=O | n | x | n | n | n
C=CCn1c(SCC(=O)Nc2sc3c(c2C#N)CCC(C)C3)nc2cc(C(=O)O)ccc2c1=O (configuration not stated) | n | x | 45µM | n | n
Cc1cc(C)nc(SCC(=O)Nc2sc3c(c2C#N)CCC(C)C3)n1 (configuration not stated) | n | x | x | 21µM | 15µM
CC(=O)Nc1sc2c(c1C#N)CCC(C)C2 (configuration not stated) | n | n | n | n | u
CCN(CC(=O)Nc1sc2c(c1C#N)CCCC2)Cc1nc2ccccc2c(=O)[nH]1 | n | n | n | n | n
Cc1cccc(NC(=O)CN(CCc2ccccc2)S(C)(=O)=O)c1 | n | n | x | n | n
CCC1CCCCN1CCNC(=O)C1CCCN(S(=O)(=O)c2cccc3nsnc23)C1 (configuration not stated) | n | n | n | n | n
COCC(=O)O[C@]1(CCN(C)CCCc2nc3ccccc3[nH]2)CCc2cc(F)ccc2[C@@H]1C(C)C | u | u | n | 21µM | 16µM
COC(=O)c1c(C)[nH]c(/C=N/Nc2ccccc2)c1C | n | n | n | n | n
CCOC(=O)c1cc2occc2n1CC(=O)NC1CCCCC1C (configuration not stated) | n | n | n | n | n
Cc1nn(CC(=O)Nc2ccccn2)c(C)c1Br | n | n | n | 8.2µM | u
Cc1c(Br)c([N+](=O)[O-])nn1CC(=O)Nc1ccccn1 | n | n | n | n | n
Cc1ccc(OCC(=O)c2c(O)c3ccccc3oc2=O)cc1C | n | n | n | u | 15µM
CCOc1ccc(N=Cc2c(O)c3ccccc3oc2=O)cc1 | n | n | n | n | n
Cc1ccc(C(C)C)c(OCC(=O)c2c(O)c3ccccc3oc2=O)c1 | n | x | x | u | 23µM
CCc1ccc(OCC(=O)c2c(O)c3ccccc3oc2=O)cc1 | n | n | n | u | 23µM
COc1cccc(N2CCN(CC(=O)Nc3ccccc3C(=O)NCc3ccccc3)CC2)c1 | n | x | n | u | 16µM
O=C(CN1CCN(c2ccc(O)cc2)CC1)Nc1ccccc1C(=O)NCCc1ccccc1 | u | x | n | u | 26µM
Cc1ccc(CNC(=O)c2ccccc2NC(=O)CN2CCN(C)CC2)cc1 | n | n | n | n | n
COc1cc2c(cc1OC)CN(CC(=O)Nc1ccccc1C(=O)NCc1ccccc1)CC2 | n | n | n[0.0935 µM] | 29µM | 15µM
COc1cccc(N2CCN(CC(=O)Nc3ccccc3C(=O)NCCc3ccccc3)CC2)c1 | n | x | n | 21µM | 18µM
COc1ccc(C2N(c3cccc(Cl)c3)C(=O)C3CCCN32)cc1 (configuration not stated) | n | n | n | n | n
O=C(CN1CCN(Cc2ccccc2Cl)CC1)N/N=C/c1cccs1 | n | n | n | n | n
COc1ccc2[nH]cc(CCNC(=O)Nc3ccccc3C)c2c1 | n | n | n | n | n
Cc1cc(C)c(C)c(S(=O)(=O)N(C)CCc2ccccn2)c1C | n | x | n | u | 23µM
SMILES | uPA surface inh | miR-21 reporter | TDP1 block | TDP1 cell CPT | TDP1 cell noCPT
CSc1ccc(Cl)c(C(=O)Nc2nccs2)c1 | n | n | n | n | n
O=C(Nc1ccc(Cl)c(Cl)c1)Nc1nccs1 | 3.2µM | n | x | 2.1µM | 0.82µM
O=C(Nc1cccc(Cl)c1)Nc1nccs1 | n | n | n | u | 16µM
COC(=O)C1=COC(O[C@H]2OC(CO)[C@H](O)C(O)C2O)[C@H]2C1C(=O)C[C@@H]2C (some centres not stated) | x | x | n | n[9.04 µM] | n[9.04 µM]
CC(C)=CCc1cc([C@@H]2COc3c(ccc4c3C=CC(C)(C)O4)C2)c(O)cc1O | n | x | x | 18µM | u
CC1(C)C=Cc2c(ccc3c2OC[C@H](c2ccc(O)cc2O)C3)O1 | n | x | n | 13µM | u
COc1ccc2nc(Nc3nc(CSc4nnnn4-c4ccccc4)cc(=O)[nH]3)nc(C)c2c1 | n | n | n | u | u
Cc1nnc(SCc2cc(=O)[nH]c(Nc3nc(C)c4cc(C)c(C)cc4n3)n2)s1 | n | n | n | u | n
Cc1ccc2c(C)nc(Nc3nc(CSc4nc5ccccc5s4)cc(=O)[nH]3)nc2c1 | n | x | x | u | 5.2µM
Cc1ccc2c(C)nc(Nc3nc(CSc4nnnn4-c4ccccc4)cc(=O)[nH]3)nc2c1 | n | n | n | 5.8µM | 6.5µM
CCCC(c1nnnn1CC1CCCO1)N1CCN(c2ccccc2)CC1 (configuration not stated) | n | n | n | n | n
Cc1cc(C)cc(NC(=O)c2sc3nc4n(c(=O)c3c2C)N=C(c2ccccc2)CS4)c1 | x | n | n | n | u
CCCc1nc(SCC(=O)Nc2nc3c(s2)CCCC3)c2ccccc2n1 | n | n | n | u | n
O=C(CSc1nc2ccccc2o1)Nc1nc2c(s1)CCCC2 | u | x | x | u | 15µM
O=C(CSc1nc2ccccc2o1)Nc1nc2ccccc2s1 | n | n | n | n | n
CCc1nc(SCC(=O)Nc2nc3c(s2)CCCC3)c2ccccc2n1 | n | n | n | 18µM | 13µM
Nc1nc(-c2ccco2)c(-c2ccco2)s1 | n | n | n | n | n
Cc1cccc(N2CCN(C(=O)c3ccc4nc(-c5ccco5)c(-c5ccco5)nc4c3)CC2C)c1 (configuration not stated) | n | n | n | 18µM | 18µM
CCCCNC(=O)c1ccc2nc(-c3ccco3)c(-c3ccco3)nc2c1 | n | n | n | u | u
Cc1cccc(N2CCN(C(=O)c3ccc4c(Cl)c5c(nc4c3)CCCC5)CC2C)c1 (configuration not stated) | x | n | n | n | u
c1coc(-c2nc(-c3ccco3)c(-c3ccco3)nc2-c2ccco2)c1 | n | n | 3.2µM | u | u
COc1ccc2nc(-c3ccco3)c(-c3ccco3)nc2c1 | n | n | x | 18µM | u
CNC(=O)c1ccc2nc(-c3ccco3)c(-c3ccco3)nc2c1 | x | x | 11µM | 20µM | u
CCCC1=Nc2cc(C(=O)N3CCC(C(N)=O)CC3)ccc2Sc2ccccc21 | n | n | n | n | n
Cc1cc(C(=O)NNC(=S)NC(=O)/C=C/c2ccccc2Cl)n[nH]1 | x | n | n | u | u
O=C(c1cc(-c2cccc3ccccc23)nc2ccccc12)N1CCN(CCO)CC1 | n | x | n | u | u
COc1ccc(Oc2ncnc3c2ncn3Cc2ccccc2)cc1 | n | n | n | n | n
CCN(Cc1cc2ccccc2[nH]c1=O)C(=O)c1cccc([N+](=O)[O-])c1 | n | n | n | n | n
CC(=O)c1ccc(NC(=O)c2ccc3nc(-c4ccco4)c(-c4ccco4)nc3c2)cc1 | n | n | 11µM | u | u
O=C(NC1CC1)c1ccc2nc(-c3ccco3)c(-c3ccco3)nc2c1 | x | x | u | u | 13µM
